This is an account of results in patent US20230279137A1 (EVOTEC INTERNATIONAL, published 2023).

Chains of the proteins cited; added tags and fusions are not shown. Residues count along the entry.
UniProt P25942, 21-277: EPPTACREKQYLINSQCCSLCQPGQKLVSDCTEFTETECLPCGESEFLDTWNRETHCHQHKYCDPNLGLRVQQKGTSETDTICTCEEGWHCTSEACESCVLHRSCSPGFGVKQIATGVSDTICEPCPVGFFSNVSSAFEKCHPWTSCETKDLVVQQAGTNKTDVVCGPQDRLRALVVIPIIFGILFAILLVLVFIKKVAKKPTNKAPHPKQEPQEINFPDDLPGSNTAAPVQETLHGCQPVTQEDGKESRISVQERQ

One experiment deals with human CD40 (human, UniProt P25942). In words: cell-based or functional assay.
Experiment [1] has as its target T1, human type I IFN receptor on HEK-Blue IFN-α/β cells (human, UniProt P17181 28-557; P48551 27-515).
T1 sequence (looked up) 1: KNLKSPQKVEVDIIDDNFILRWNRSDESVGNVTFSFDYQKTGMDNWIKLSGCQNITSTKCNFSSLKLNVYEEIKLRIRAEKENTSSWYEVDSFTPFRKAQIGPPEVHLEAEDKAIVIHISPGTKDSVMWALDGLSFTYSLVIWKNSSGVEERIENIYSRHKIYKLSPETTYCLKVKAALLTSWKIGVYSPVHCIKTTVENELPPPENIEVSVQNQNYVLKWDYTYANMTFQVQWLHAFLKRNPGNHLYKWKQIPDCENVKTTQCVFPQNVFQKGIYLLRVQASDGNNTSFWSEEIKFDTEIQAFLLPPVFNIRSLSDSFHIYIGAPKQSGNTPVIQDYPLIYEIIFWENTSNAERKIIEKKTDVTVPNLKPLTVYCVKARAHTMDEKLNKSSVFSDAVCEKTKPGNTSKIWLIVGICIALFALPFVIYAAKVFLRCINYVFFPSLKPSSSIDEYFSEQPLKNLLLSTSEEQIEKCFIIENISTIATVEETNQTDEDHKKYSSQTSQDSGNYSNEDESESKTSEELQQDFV
T1 sequence (looked up) 2: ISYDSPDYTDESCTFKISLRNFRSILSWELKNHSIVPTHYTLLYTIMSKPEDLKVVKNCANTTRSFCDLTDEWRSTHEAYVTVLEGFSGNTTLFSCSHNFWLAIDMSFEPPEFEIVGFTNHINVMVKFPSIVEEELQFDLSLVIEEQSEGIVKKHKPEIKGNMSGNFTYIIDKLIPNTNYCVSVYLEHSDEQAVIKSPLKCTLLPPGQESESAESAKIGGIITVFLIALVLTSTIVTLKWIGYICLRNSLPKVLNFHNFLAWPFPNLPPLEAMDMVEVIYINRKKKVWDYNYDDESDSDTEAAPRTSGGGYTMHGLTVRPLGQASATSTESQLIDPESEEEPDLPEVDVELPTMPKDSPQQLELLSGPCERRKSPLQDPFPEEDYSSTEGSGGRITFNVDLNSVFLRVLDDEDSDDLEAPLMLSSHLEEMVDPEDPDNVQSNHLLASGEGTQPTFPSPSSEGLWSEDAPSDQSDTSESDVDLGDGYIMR
The experiment is described as follows: cell-based or functional assay.

B1: IFA46 (antibody, human IgG2, kappa)
light: DIQMTQSPSSVSASVGDRVTITCRASQGIYSWLAWYQQKPGKAPNLLIYTASTLQSGVPSRFSGSGSGTDFTLTISSLQPEDFATYYCQQANIFPLTFGGGTKVEIKRTVAAPSVFIFPPSDEQLKSGTASVVCLLNNFYPREAKVQWKVDNALQSGNSQESVTEQDSKDSTYSLSSTLTLSKADYEKHKVYACEVTHQGLSSPVTKSFNRGECGGGGSGGGGSGGGGSGGGGS[about 150 residues omitted]
heavy: QVQLVQSGAEVKKPGASVKVSCKASGYTFTGYYMHWVRQAPGQGLEWMGWINPDSGGTNYAQKFQGRVTMTRDTSISTAYMELNRLRSDDTAVYYCARDQPLGYCTNGVCSYFDYWGQGTLVTVSSASTKGPSVFPLAPCSRSTSESTAALGCLVKDYFPEPVTVSWNSGALTSGVHTFPAVLQSSGLYSLSSVVTVPSSNFGTQTYTCNVDHKPSNTKVDKTVERKCCVECPPCPAPPVAGPSVFLFPPKPKDTLMISRTPEVTCVVVDVSHEDPEVQFNWYVDGVEVHNAKTKPREEQFNSTFRVVSVLTVVHQDWLNGKEYKCKVSNKGLPAPIEKTISKTKGQPREPQVYTLPPSREEMTKNQVSLTCLVKGFYPSDIAVEWESNGQPENNYKTTPPMLDSDGSFFLYSKLTVDKSRWQQGNVFSCSVMHEALHNHYTQKSLSLSPGK
Regarding B1, the “CD40 EC50 (ng/mL), NFκB-SEAP reporter in HEK-Blue CD40L cells” value with human CD40 came out at 86.3 ng/mL. Besides, the “IFNω EC50 (ng/mL), SEAP reporter in HEK-Blue hIFN-α/β cells” value in experiment [1] is 0.493 ng/mL.
